Measurements reported in US5064637A, “Substituted sulfonamide derivatives which inhibit allergic reactions” (Board of Regents, The University of Texas System, priority 1989, dated 1991).

Legend:
Ig to SMX = assay: Hapten inhibition of Ig binding to SMX-HSA (RAST for IgE, ELISA for IgG, IgA, IgM); set-up: species or system human; conditions: free inhibitor; specificity check
IgG to SMX = assay: Example 2: hapten inhibition of IgG binding, ELISA, no preincubation; set-up: species or system human; conditions: final serum dilution 1:80
Description: The assay was set up using a 96 well microtiter plate. None of the serum samples were preincubated with inhibitor. Serum used was positive (+) for IgG to SMX, and was used at a final dilution of […] for all wells.
A variety of binding inhibitors were employed at varying concentrations.
A 50 microliter volume of each numerically designated inhibitor was added each well of the plate. A 50 microliter volume of serum (1:40 dilution) positive to IgG to SMX was then added to each well. The final dilution of serum in each was then 1:80.
The microtiter plate was then shaken slightly to mix the contents of each well and then the standard ELISA assay was performed. The plate was then allowed to incubate for 2 hours at room temperature. The plates were then washed and the OD readings taken for each well.
Percent inhibition was then calculated for each sample on the basis of decrease in OD.

| Substance | inhibition of antibody binding to SMX-HSA (in words) (Ig to SMX) | % Inhibition (IgG to SMX; inhibitor 0.1 mg/ml) [%] | % Inhibition (IgG to SMX; inhibitor 0.3 mg/ml) [%] | % Inhibition (IgG to SMX; inhibitor 1 mg/ml) [%] | % Inhibition (IgG to SMX; inhibitor 3 mg/ml) [%] | % Inhibition (IgG to SMX; inhibitor 10 mg/ml) [%] |
| --- | --- | --- | --- | --- | --- | --- |
| Human serum albumin [HSA, reference compound] | not |  |  |  |  |  |
| N^4 -sulfamethoxazoyl-human serum albumin [SMX-HSA] | inhibition of binding | 53 | 54 | 54 | 55 | 59 |
| penicilloyl-HSA [BPO-HSA, reference compound] | not |  |  |  |  |  |
